# Values of other authors as cited in patent US20110319427A1 (priority 2009, published 2011).
# Tested on: bortezomib-resistant THP1 leukemia cells (β5 proteasome subunit mutated and over-expressed)
# Conditions: cited from earlier work
smiles,measurement,value
"CC(C)C[C@H](NC(=O)[C@H](Cc1ccccc1)NC(=O)c1cnccn1)B(O)O [bortezomib, [(1R)-3-Methyl-1-[[(2S)-1-oxo-3-phenyl-2-[(pyrazinylcarbonyl)amino]propyl]amino]butyl]boronic acid]",fold resistance to bortezomib,up to 237 fold
